US8404670B2 (Sunovion Pharmaceuticals Inc., priority 2009, dated 2013)

Chains of the proteins cited; added tags and fusions are not shown.
UniProt Q9Y5N1, whole entry: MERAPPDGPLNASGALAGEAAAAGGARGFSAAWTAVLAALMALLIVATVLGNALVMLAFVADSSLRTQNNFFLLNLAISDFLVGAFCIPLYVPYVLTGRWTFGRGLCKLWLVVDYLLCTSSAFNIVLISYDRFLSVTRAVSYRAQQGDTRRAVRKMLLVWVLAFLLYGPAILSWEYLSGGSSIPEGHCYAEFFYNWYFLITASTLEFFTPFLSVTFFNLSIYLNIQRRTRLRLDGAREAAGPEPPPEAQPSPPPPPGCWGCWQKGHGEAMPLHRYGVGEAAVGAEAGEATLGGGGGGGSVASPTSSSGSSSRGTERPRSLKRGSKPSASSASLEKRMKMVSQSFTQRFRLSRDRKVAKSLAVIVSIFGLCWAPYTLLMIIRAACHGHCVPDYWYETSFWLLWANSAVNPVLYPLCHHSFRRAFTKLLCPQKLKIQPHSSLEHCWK

Biological target: human histamine H3 receptor (Homo sapiens, UniProt Q9Y5N1)
Experiment: H3 GTPγS assay (SPA method), histamine H3 in vitro assay
Conditions: read-out: Potency (functional potency as indicated by IC50); GTPγ[35S] binding to membranes of cells expressing human H3; antagonist mode with R-γ-Me-Histamine at EC80 (30 nM); in one embodiment HCl salts tested; tested form: HCl
Procedure: H3 GTPγS assay (SPA method) was performed at EuroScreen (Belgium, ES-392-C) using conventional methods. Briefly, cells expressing the human histamine H3 receptor were homogenized in 15 mM Tris-HCl pH 7.5, 2 mM MgCl2, 0.3 mM EDTA, and 1 mM EGTA. Membranes were washed twice in the above tris buffer, collected by centrifugation (40,000×g, 25 min), and re-suspended in 75 mM Tris-HCl pH 7.5, 12.5 mM MgCl2, 0.3 mM EDTA, 1 mM EGTA, and 250 mM sucrose. Membranes were frozen in liquid nitrogen until use. On the day of the assay, membranes were thawed and diluted in assay buffer (20 mM HEPES pH 7.4, 100 mM NaCl, 10 μg/ml saponin, 1 mM MgCl2) to give 500 μg/ml and mixed (v/v) with GDP in assay buffer for a final GDP concentration of 10 μM and incubated on ice for at least 15 min. PVT-WGA beads (Amersham, RPNQ001) were diluted in assay buffer at 50 mg/mL and mixed with GTPγ[^35S] […] The reaction was started by adding 50 μL of test compound, 20 μL of the membranes:GDP mix, 10 μL of buffer, and 20 μL of the GTPγ[^35S]:beads mix in a 96 well plate Optiplate™ (PerkinElmer, 6005299) covered with topseal (TopCount™, PerkinElmer), mixed with an orbital shaker for 2 min, incubated for 1 hour at room temperature, centrifuged for 10 min at 2000 rpm, incubated for 1 h at room temperature, and counted for 1 min in a TopCount™ reader (PerkinElmer). […]

Structure (SMILES): Cc1nccn1-c1ccc2c(c1)nc1n2CCN(C2CCC2)CC1
- IC50: < 0.01 µM
